Results as given in patent US20110002953A1, “USE OF IMMIDAZOQUINOLINAMINES AS ADJUVANTS IN DNA VACCINATION” (priority 2000, published 2011).

Test system: activation of CD4 T cells

CC(C)Cn1cnc2c(N)nc3ccccc3c21 [imiquimod, 1-(2-methylpropyl)-1H-imidazo[4,5-c]quinolin-4-amine]
increase in activation of CD4 T cells (IL-2 ELISPOT), pVAC1.OVA + imiquimod compared with pVAC1.OVA alone (imiquimod 30 mg/kg, lymph node cells 6 days after immunisation): 70% | number of activated CD4 T cells in vivo (FIG. 3) (in words): increases
